The values that follow come from ChEMBL document CHEMBL1150347, “A prodomain peptide of Plasmodium falciparum cysteine protease (falcipain-2) inhibits malaria parasite development” (J Med Chem, 2008).

Active and inactive are the calls of the source. No cut-off for these calls is given here.

This assay deals with Plasmodium falciparum. Description: Growth inhibition at 24 hrs of Plasmodium falciparum 3D7 by [3H]hypoxanthine uptake. The format is functional, organism-based. The gist of the method: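 Synchronized ring-stage P. falciparum-infected RBCs incubated 24 h with a range of peptide concentrations, with OVA peptide as control. About 1 µCi [3H]hypoxanthine added per well and cultures kept a further 24 h. Cells harvested and incorporated label counted by scintillation.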

For `CC[C@H](C)[C@H](NC(=O)[C@H](CCCCN)NC(=O)[C@@H](NC(=O)[C@H](CCC(N)=O)NC(=O)[C@@H](N)CCCNC(=N)N)[C@@H](C)CC)C(=O)N[C@@H](Cc1c[nH]c2ccccc12)C(=O)N[C@@H](Cc1ccccc1)C(=O)N[C@@H](CCC(N)=O)C(=O)N[C@@H](CC(N)=O)C(=O)N[C@@H](CCCNC(=N)N)C(=O)N[C@@H](CCCNC(=N)N)C(=O)N[C@@H](CCSC)C(=O)N[C@@H](CCCCN)C(=O)N[C@@H](Cc1c[nH]c2ccccc12)C(=O)N[C@@H](CCCCN)C(=O)N[C@@H](CCCCN)C(=O)O`, the outcome was inactive.
